Reference: patent US9278981B2, “Compounds and compositions for inhibiting the activity of ABL1, ABL2 and BCR-ABL1” (Novartis AG, priority 2012, dated 2016)

Protein sequences, listed by entry. Tags and fused reporters are not part of them. Residues count along the entry.
UniProt P00519, 64-515: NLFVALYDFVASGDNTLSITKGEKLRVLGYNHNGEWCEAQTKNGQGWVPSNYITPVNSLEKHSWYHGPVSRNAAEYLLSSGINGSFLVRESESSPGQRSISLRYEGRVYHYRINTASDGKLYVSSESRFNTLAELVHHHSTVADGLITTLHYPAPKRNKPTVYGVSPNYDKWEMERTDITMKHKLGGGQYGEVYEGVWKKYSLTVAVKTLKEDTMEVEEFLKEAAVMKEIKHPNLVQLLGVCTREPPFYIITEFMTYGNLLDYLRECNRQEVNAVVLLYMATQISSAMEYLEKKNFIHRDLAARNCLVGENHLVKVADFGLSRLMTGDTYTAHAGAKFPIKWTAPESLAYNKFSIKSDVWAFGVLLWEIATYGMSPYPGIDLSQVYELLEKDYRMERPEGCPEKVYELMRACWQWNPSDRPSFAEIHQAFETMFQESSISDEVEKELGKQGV

How the values were obtained:
[1] = molecular target: T1, ABL1 (64-515) (Homo sapiens (Human), UniProt P00519); experiment: Radio ABL1 (64-515) assay (radiometric filter-binding); type: biochemical
[2] = test system: Ba/F3-BCR-ABL1-WT cells; experiment: cells; conditions: Mus musculus, 48 h, read-out: Ba/F3-BCR-ABL1-WT IC50 [μM]
[3] = molecular target: T1, ABL1 (64-515); experiment: Caliper ABL1 (64-515) assay (microfluidic mobility shift); type: biochemical
[4] = test system: BCR-ABL1+KCL-22 cells; experiment: Acquired resistance in BCR-ABL1+KCL-22 cells in vitro; type: cell-based; conditions: cells treated every 3-4 days

| SMILES | IC50 [1] [nM] | IC50 [2] [µM] | IC50 [3] [nM] | time until acquired resistance [4] [days] |
| --- | --- | --- | --- | --- |
| O=C(Nc1ccc(OC(F)(F)F)cc1)c1ccc(N2CC[C@H](O)C2)c(-c2cncnc2)c1 [Example 1, (S)-4-(3-Hydroxypyrrolidin-1-yl)-3-(pyrimidin-5-yl)-N-(4-(trifluoromethoxy)phenyl)benzamide] | < 3 |  |  |  |
| O=C(Nc1ccc(OC(F)(F)F)cc1)c1ccc(N2CC[C@@H](O)C2)c(-c2cncnc2)c1 [Example 2, (R)-4-(3-Hydroxypyrrolidin-1-yl)-3-(pyrimidin-5-yl)-N-(4-(trifluoromethoxy)phenyl)benzamide] | < 3 | 0.0024 |  |  |
| COc1ncc(-c2cc(C(=O)Nc3ccc(OC(F)(F)F)cc3)ccc2N2CC[C@@H](O)C2)cn1 [Example 4, (R)-4-(3-Hydroxypyrrolidin-1-yl)-3-(2-methoxypyrimidin-5-yl)-N-(4-(trifluoromethoxy)phenyl)benzamide] | 7 | 0.0056 |  |  |
| O=C(Nc1ccc(OC(F)(F)F)cc1)c1cnc(N2CC[C@@H](O)C2)c(-c2ccccc2)c1 [Example 57, (R)-6-(3-Hydroxypyrrolidin-1-yl)-5-phenyl-N-(4-(trifluoromethoxy)phenyl)nicotinamide] | 7 | 0.0066 |  |  |
| CC(C)(O)C1CN(c2ncc(C(=O)Nc3ccc(OC(F)(F)F)cc3)cc2-c2cncnc2)C1 [Example 142, 6-(3-(2-Hydroxypropan-2-yl)azetidin-1-yl)-5-(pyrimidin-5-yl)-N-(4-(trifluoromethoxy)phenyl)nicotinamide] | 6 | 0.0089 |  |  |
| CN(CCO)c1ncc(C(=O)Nc2ccc(OC(F)(F)Cl)cc2)cc1-c1cncc(C#N)c1 [Example 181, N-(4-(Chlorodifluoromethoxy)phenyl)-5′-cyano-2-((2-hydroxyethyl)(methyl)amino)-[3,3′-bipyridine]-5-carboxamide] | 4 | 0.0014 | 0.2 |  |
| O=C(Nc1ccc(SC(F)(F)F)cc1)c1cnc(N2CC[C@@H](O)C2)c(-c2cncc(F)c2)c1 [Example 187, (R)-5′-Fluoro-2-(3-hydroxypyrrolidin-1-yl)-N-(4-((trifluoromethyl)thio)phenyl)-[3,3′-bipyridine]-5-carboxamide] | 4 | 0.0008 | 0.2 |  |
| O=C(Nc1ccc(OC(F)(F)C(F)F)cc1)c1cnc(N2CC[C@@H](O)C2)c(-c2cncc(F)c2)c1 [Example 212, (R)-5′-Fluoro-2-(3-hydroxypyrrolidin-1-yl)-N-(4-(1,1,2,2-tetrafluoroethoxy)phenyl)-[3,3′-bipyridine]-5-carboxamide] | 7 | 0.047 | 11 |  |
| O=C(Nc1ccc([S+]([O-])C(F)(F)F)cc1)c1cnc(N2CC[C@@H](O)C2)c(-c2cncc(F)c2)c1 (stereo partly drawn) [Example 222, 5′-Fluoro-2-((R)-3-hydroxypyrrolidin-1-yl)-N-(4-((trifluoromethyl)sulfinyl)phenyl)-[3,3′-bipyridine]-5-carboxamide] | 11 | 0.0435 | 15 |  |
| O=C(Nc1ccc(OC(F)(F)F)cc1)c1cnc(N2CCOC(CO)C2)c(-c2cncnc2)c1 (stereo not drawn) [Example 230] | 3.9 |  | 6.1 |  |
| O=C(Nc1ccc(OC(F)(F)Cl)cc1)c1cnc(N2CC(CO)C2)c(-c2cncnc2)c1 [Example 260] | 5.1 |  | 1 |  |
| O=C(Nc1ccc(C(F)(F)C(F)(F)Cl)cc1)c1cnc(N2CC[C@@H](O)C2)c(-c2cncnc2)c1 [Example 278, (R)—N-(4-(2-Chloro-1,1,2,2-tetrafluoroethyl)phenyl)-6-(3-hydroxypyrrolidin-1-yl)-5-(pyrimidin-5-yl)nicotinamide] | 1 | 0.0009 | 0.5 |  |
| Cc1ncncc1-c1cc(C(=O)Nc2ccc(OC(F)(F)Cl)cc2)cnc1N1C[C@@H](O)[C@H](O)C1 [Example 282, N-(4-(Chlorodifluoromethoxy)phenyl)-6-((3R,4R)-3,4-dihydroxypyrrolidin-1-yl)-5-(4-methylpyrimidin-5-yl)nicotinamide] |  |  | 0.9 |  |
| Cc1ncncc1-c1cc(C(=O)Nc2ccc(OC(F)(F)Cl)cc2)cnc1N1C[C@H](O)[C@@H](O)C1 [Example 283, N-(4-(Chlorodifluoromethoxy)phenyl)-6-((3S,4S)-3,4-dihydroxypyrrolidin-1-yl)-5-(4-methylpyrimidin-5-yl)nicotinamide] |  | 0.0216 |  |  |
| COc1ncc(-c2cc(C(=O)Nc3ccc(OC(F)(F)Cl)cc3)cnc2N2CC[C@@H](O)C2)c(OC)n1 [Example 298, (R)—N-(4-(Chlorodifluoromethoxy)phenyl)-5-(2,4-dimethoxypyrimidin-5-yl)-6-(3-hydroxypyrrolidin-1-yl)nicotinamide] |  | 0.0022 | 2 |  |
| Cc1nc(Nc2ncc(C(=O)Nc3c(C)cccc3Cl)s2)cc(N2CCN(CCO)CC2)n1 [dasatinib] |  |  |  | 18 to 21 |
